For the experiment, the system named is CD3+, CD4+, and CD8+ cells in MMTV-PyMT tumor slices. Kind of experiment: Flow cytometry of resident immune cells in MMTV-PyMT tumor slice cultures. It is filed as cell-based, mouse. The following applies: 4 days ex vivo, addition of IL2. The method, then: A flow cytometry analysis of spontaneous MMTV-PyMT murine breast tumor slice cultures analyzed with anti-CD45, CD3, CD8 and CD4 antibodies was performed to assess the long-term maintenance of resident immune cells in tumor slices subject to the culturing conditions described herein. […] At 4 days ex vivo, the MMTV-PyMT tumor slices were dissociated using a cocktail containing a 9:1 ratio of accutase:collagenase+hyaloruronidase. Dissociated single cells were washed and resuspended in blocking antibody (antiCD16/32) and diluted in 2% BSA/PBS for 30 minutes on ice. Cells were then washed and resuspended in 45 μl of antibody cocktail containing anti-CD45, CD3, CD8, and CD4 antibodies (PE-CY7, PE, APC, FITC, BV650, and BV711) in Brilliant Violet staining buffer and incubated on ice for 30 minutes. After incubation, the cells were washed and stained with fixable viability dye for 30 minutes at room temperature. After staining, the cells were washed and fixed in ICfix solution and then analyzed on a LSRII flow cytometer.
(In flow cytometry, cells or beads pass a laser one at a time.)

As for IL2: IL2 added to tumor slice cultures, the “immune cell frequency with respect to parental tumor frequency” value is on record as “increased”.
